Test [1] addresses T1, m-opiate receptor (mOR) cDNA RC8-1 expressed in COS cells (Rattus norvegicus, UniProt P33535).
T1 construct: expressed in transfected cells; host or cells: COS cells, transient electroporation with pcDNA1RC8-1; membranes
Description: biochemical. The format is binding.

Protein sequences, listed by entry. Tags and fused reporters are not part of them.
UniProt P33535, whole entry: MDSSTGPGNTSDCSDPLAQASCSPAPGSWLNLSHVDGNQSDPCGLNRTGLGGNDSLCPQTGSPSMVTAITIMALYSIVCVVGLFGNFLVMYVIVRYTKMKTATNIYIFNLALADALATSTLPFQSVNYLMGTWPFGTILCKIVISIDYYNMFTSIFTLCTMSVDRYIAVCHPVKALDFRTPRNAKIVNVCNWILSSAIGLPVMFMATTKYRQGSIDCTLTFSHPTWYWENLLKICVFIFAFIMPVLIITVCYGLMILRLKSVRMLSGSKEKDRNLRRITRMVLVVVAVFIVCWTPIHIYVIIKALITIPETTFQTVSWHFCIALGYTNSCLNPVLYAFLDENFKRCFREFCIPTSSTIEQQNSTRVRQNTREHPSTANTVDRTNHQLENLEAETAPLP

Test [2] addresses T1, m-opiate receptor (mOR) cDNA RC8-1 expressed in COS cells. It is filed as binding.

As to `C[C@@H](NC(=O)[C@@H](N)Cc1ccc(O)cc1)C(=O)NCC(=O)N(C)[C@@H](Cc1ccccc1)C(=O)NCCO` [[³H]DAMGO, [D-Ala2,N-methyl-Phc4,Glyo15] enkephalin], in test [1], the Kd was determined as 0.4 nM.

With D-Ala2,D-Leu5 enkephalin [DADLE], the “potency in displacing binding of [³H]DAMGO” value in test [2] is on record as “high potency”.

The term Kd denotes the concentration at which binding is half-saturated.

These data come from EP0612845A2 (priority 1993, dated 1994).
